Laboratory results: patent US7041292B1, “Treating prostate cancer with anti-ErbB2 antibodies” (Genentech, Inc., priority 1999, dated 2006)
“Also recorded” adds a separate entry of the source.

How the values were obtained:
[1] = system: CWR22 human prostate cancer xenograft; experiment: Androgen dependent CWR22 prostate cancer xenograft; assay type: in vivo, mice
[2] = system: LNCaP human prostate cancer xenograft; experiment: Androgen dependent LNCaP prostate cancer xenograft; assay type: in vivo, mice; conditions: end of the treatment period, n=6
[3] = system: CWR22R human prostate cancer xenograft; experiment: Androgen independent CWR22R prostate cancer xenograft; assay type: in vivo, mice
[4] = system: CWRSA6 human prostate cancer xenograft; experiment: Androgen independent CWRSA6 prostate cancer xenograft; assay type: in vivo, mice
[5] = system: panel of human tumor cell lines; experiment: Inhibition of specific 125I-labeled rHRGβ1 binding to a panel of human tumor cell lines; conditions: all cell lines with the exception of MDA-MB-468; FIG. 3

Question: What does the source list for “HERCEPTIN®: recombinant humanized version of the murine anti-ErbB2 antibody 4D5”?
Answer: mean tumor volume ([1]; CWR22, end of the treatment period, n=6): 520 mm^3; growth inhibition ([1]; CWR22, versus control, HERCEPTIN® 20 mg/kg i.p. twice weekly): 68%; effect on tumor growth / clinical activity ([1]; CWR22 androgen dependent, antibody 20 mg/kg twice weekly): has clinical activity; mean tumor volume [2]: 163 mm^3; effect on tumor growth / clinical activity [3]: No effect; also recorded: little or no clinical activity; effect on tumor growth / clinical activity [4]: No effect; also recorded: little or no clinical activity

Question: For “2C4: murine monoclonal antibody binding the extracellular domain of ErbB2, blocks ligand activation; ATCC HB12697 [Mutant 2C4]”, which “inhibition of 125I-labeled rHRGβ1 binding” value [5] is on record?
Answer: Its value is “significantly inhibited”.
